Test results from publication PMC9669179 (Epilepsia, 2022).

Conditions: CF-1, mouse, in vivo

For CCCC(CCC)C(=O)O [VPA, sodium valproate], the “Plasma Dose Prop (AUC)” value was 1.48.
